In patent US9220680B2, “Compositions and methods for localized drug delivery through mammary papillae” (South Dakota State University, priority 2012, dated 2015):

Test: In vitro penetration and permeation via excised porcine mammary papilla, Franz diffusion cell (Example 1)
Assay type: in vitro ADME
Description: Drug penetration and permeation via mammary papillae was performed in a Franz diffusion cell using excised porcine mammary papilla. […] The transport studies were performed at time points for 6 and 48 hours.
In a separate study to evaluate the drug retention and disposition, the treatment was removed after 6 hours and the study was continued until the 48 hour mark. Samples were withdrawn from the receptor compartment at different time points. At the end of study, the mammary papilla was cut to 2 mm thick cylindrical sections from the top to the base of the tissue and was digested using a tissue solubilizer. The drug concentrations were determined by liquid scintillation counting.
Methods for the preparation of porcine mammary papilla. Freshly excised strips of porcine mammary papilla (6-7 months old animals) were washed with deionized water followed by removal of subcutaneous fatty tissue using a scalpel. Keeping the mammary papilla in the center, 3 cm×3 cm sized specimens of the tissue were excised, subcutaneous fat tissue was removed, and the tissue was frozen at −20° C. until used for the drug penetration and permeation studies. […]
Extraction of drugs from the mammary papilla. […] These sections were homogenized, the drug was extracted, and the drug concentration was determined by radioactive counts.

bovine serum albumin [BSA]
Retention in mammary papilla (in words) (6 and 48 hours): mainly retained in the mammary papilla tissue
Permeation across mammary papilla (in words) (treatment up to 48 hours): not found to penetrate across the mammary papilla to a significant extent
